{"sequences": {"note": "Protein sequences, listed by entry. Tags and fused reporters are not part of them.", "UniProt P08183, whole entry": "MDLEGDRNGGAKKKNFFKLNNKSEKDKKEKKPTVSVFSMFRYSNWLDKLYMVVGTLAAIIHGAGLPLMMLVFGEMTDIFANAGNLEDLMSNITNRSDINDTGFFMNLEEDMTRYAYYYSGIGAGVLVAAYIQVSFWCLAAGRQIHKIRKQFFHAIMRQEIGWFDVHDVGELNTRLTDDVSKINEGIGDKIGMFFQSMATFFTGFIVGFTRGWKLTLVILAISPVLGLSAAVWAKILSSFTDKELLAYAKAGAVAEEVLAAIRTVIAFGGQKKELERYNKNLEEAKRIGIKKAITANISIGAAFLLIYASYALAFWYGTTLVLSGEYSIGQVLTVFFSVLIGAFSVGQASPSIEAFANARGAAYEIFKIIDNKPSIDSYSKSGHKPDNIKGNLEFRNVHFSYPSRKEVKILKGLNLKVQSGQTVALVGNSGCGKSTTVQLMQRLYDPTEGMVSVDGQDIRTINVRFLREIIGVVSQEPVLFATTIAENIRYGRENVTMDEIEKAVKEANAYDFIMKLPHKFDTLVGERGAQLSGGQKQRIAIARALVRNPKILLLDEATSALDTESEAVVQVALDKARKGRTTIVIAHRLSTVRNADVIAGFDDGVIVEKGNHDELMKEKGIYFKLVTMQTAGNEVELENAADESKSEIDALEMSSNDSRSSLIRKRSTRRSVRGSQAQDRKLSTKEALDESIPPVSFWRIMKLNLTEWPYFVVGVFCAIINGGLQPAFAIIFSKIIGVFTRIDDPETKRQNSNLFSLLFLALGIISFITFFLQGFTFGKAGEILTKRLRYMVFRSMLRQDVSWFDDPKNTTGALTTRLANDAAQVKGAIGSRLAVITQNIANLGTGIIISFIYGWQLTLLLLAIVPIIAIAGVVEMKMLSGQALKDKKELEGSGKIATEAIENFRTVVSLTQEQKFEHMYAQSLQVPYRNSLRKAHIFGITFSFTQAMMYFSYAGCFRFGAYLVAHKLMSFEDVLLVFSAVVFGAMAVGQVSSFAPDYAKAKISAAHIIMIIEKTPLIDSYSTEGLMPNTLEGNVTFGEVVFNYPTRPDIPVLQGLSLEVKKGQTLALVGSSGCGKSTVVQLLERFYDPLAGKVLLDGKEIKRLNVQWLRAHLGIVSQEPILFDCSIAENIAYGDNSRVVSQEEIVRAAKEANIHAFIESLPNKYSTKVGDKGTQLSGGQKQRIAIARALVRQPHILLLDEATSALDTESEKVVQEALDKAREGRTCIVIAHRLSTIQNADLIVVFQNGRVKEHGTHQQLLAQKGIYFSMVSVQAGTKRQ"}, "source": "paper PMC8376931", "about": "“Structure activity relationships and the binding mode of quinolinone-pyrimidine hybrids as reversal agents of multidrug resistance mediated by P-gp” (Scientific Reports, 2021)", "key": {"P-gp": {"biological_target": "P-gp (Homo sapiens, UniProt P08183)"}, "Lucena 1 cells": {"tested_on": "Lucena 1 cells", "test": "MTT cytotoxicity assay in Lucena 1", "conditions": "ratio of IC50 to Dox"}}, "data": [{"smiles": "COc1cccc2c1C(=O)c1c(O)c3c(c(O)c1C2=O)C[C@@](O)(C(=O)CO)C[C@@H]3O[C@H]1C[C@H](N)[C@H](O)[C@H](C)O1", "note": "[doxorubicin, reference compound]", "values": [{"measurement": "Dox fluorescence intensity, fold lower in Lucena 1 with respect to K562", "setting": "P-gp", "result": 2.31, "unit": "fold"}, {"measurement": "fold resistance of Lucena 1 compared to parental K562", "setting": "Lucena 1 cells", "result": 35.8, "unit": "fold"}]}]}
